# According to patent EP4834897A1, “COMPOUNDS WITH TWO AZAHETEROCYCLES SUBSTITUTED ISOINDOLINONE SKELETON AND USES THEREOF” (dated 2026):
# Protein sequences, listed by entry. Tags and fused reporters are not part of them.
# UniProt P15170, whole entry: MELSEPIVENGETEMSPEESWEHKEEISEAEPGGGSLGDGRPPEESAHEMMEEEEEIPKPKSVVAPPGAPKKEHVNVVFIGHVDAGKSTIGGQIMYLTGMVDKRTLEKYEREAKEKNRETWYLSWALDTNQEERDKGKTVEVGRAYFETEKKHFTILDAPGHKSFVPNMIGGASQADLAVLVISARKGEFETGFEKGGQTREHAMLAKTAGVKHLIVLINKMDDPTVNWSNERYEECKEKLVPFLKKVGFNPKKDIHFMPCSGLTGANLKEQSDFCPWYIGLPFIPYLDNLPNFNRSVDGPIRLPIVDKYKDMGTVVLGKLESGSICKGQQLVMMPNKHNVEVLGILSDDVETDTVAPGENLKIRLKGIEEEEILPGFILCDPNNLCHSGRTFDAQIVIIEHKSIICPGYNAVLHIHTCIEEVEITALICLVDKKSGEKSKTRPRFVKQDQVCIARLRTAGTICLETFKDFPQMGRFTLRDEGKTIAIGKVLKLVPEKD
# UniProt Q96SW2, whole entry: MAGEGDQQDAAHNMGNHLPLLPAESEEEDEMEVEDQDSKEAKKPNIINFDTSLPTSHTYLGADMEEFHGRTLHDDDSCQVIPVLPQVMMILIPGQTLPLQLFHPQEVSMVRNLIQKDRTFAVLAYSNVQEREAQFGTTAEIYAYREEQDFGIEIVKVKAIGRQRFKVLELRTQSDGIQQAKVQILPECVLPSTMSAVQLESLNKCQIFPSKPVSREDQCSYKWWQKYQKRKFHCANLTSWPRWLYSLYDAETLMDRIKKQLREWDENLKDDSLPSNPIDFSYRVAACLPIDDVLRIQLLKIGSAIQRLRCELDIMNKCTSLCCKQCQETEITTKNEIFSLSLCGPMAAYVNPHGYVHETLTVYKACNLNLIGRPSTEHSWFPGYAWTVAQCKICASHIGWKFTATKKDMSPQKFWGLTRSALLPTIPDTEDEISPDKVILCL
# UniProt Q13422, whole entry: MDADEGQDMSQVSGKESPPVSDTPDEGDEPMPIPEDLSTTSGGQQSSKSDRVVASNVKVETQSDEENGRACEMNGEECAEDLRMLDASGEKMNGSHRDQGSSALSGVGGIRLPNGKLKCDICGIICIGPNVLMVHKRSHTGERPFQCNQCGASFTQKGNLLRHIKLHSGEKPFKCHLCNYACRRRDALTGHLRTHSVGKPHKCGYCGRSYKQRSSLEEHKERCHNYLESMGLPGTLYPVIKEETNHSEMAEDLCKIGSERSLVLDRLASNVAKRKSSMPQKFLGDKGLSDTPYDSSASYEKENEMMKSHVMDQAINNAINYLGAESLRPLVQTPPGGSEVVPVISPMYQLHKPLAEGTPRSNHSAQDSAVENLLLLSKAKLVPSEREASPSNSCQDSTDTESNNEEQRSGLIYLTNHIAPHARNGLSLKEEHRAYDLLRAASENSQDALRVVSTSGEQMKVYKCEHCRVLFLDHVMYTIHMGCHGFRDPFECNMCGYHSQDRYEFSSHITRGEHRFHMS
# UniProt P48729, whole entry: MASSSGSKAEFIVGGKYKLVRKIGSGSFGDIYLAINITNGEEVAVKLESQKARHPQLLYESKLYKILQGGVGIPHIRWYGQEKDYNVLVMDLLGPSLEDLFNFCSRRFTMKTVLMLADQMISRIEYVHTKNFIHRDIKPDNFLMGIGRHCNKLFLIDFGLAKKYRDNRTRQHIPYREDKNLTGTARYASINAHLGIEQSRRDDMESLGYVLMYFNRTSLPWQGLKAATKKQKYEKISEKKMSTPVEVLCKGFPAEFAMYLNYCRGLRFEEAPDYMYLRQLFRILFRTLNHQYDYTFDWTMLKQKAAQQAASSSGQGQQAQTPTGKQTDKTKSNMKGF
# UniProt P30291, whole entry: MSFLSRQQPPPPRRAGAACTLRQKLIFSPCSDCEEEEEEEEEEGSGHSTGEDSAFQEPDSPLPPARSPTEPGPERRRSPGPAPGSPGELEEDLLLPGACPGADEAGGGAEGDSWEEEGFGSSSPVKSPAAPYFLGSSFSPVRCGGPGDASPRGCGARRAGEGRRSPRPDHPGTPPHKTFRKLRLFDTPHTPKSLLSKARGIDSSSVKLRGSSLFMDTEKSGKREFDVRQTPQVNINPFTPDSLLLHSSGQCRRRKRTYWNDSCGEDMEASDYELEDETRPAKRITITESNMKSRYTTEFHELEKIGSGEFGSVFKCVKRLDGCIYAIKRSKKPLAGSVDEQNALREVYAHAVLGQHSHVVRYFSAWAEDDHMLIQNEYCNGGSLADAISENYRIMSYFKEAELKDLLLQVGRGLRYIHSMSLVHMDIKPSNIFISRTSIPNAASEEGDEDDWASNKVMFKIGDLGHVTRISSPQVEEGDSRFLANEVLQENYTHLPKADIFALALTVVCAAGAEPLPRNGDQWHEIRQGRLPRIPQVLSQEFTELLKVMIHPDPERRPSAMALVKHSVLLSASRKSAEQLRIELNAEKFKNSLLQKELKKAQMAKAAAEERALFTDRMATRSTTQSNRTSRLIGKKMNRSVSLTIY
# UniProt Q9UKS7, whole entry: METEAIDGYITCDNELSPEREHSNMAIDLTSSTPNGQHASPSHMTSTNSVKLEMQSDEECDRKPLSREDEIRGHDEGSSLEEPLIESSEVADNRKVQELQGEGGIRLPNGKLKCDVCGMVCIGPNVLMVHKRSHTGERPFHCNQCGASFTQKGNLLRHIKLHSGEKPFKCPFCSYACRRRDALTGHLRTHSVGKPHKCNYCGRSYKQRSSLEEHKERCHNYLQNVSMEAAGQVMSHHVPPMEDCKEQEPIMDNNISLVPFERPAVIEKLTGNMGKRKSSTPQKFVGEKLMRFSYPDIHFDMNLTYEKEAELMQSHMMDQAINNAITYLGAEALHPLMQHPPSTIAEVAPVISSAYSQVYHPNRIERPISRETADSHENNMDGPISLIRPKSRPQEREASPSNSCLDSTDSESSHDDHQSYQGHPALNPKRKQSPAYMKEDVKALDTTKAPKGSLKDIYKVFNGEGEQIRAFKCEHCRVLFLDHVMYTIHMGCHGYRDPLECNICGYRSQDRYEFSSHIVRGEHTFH
# UniProt Q9UKT9, whole entry: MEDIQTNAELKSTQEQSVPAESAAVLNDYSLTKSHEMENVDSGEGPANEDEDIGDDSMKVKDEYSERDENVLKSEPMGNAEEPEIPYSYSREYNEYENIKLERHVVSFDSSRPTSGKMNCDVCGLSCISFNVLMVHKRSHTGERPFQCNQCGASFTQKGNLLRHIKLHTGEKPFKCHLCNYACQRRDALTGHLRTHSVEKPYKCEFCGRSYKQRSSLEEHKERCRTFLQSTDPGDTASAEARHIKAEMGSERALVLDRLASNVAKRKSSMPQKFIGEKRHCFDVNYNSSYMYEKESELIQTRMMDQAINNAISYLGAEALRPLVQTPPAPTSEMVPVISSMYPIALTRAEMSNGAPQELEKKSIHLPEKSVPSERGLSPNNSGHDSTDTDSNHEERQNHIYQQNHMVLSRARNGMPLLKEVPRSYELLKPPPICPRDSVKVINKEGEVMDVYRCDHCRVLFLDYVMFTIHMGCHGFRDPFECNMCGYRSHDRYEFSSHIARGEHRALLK
# UniProt Q16531, whole entry partner: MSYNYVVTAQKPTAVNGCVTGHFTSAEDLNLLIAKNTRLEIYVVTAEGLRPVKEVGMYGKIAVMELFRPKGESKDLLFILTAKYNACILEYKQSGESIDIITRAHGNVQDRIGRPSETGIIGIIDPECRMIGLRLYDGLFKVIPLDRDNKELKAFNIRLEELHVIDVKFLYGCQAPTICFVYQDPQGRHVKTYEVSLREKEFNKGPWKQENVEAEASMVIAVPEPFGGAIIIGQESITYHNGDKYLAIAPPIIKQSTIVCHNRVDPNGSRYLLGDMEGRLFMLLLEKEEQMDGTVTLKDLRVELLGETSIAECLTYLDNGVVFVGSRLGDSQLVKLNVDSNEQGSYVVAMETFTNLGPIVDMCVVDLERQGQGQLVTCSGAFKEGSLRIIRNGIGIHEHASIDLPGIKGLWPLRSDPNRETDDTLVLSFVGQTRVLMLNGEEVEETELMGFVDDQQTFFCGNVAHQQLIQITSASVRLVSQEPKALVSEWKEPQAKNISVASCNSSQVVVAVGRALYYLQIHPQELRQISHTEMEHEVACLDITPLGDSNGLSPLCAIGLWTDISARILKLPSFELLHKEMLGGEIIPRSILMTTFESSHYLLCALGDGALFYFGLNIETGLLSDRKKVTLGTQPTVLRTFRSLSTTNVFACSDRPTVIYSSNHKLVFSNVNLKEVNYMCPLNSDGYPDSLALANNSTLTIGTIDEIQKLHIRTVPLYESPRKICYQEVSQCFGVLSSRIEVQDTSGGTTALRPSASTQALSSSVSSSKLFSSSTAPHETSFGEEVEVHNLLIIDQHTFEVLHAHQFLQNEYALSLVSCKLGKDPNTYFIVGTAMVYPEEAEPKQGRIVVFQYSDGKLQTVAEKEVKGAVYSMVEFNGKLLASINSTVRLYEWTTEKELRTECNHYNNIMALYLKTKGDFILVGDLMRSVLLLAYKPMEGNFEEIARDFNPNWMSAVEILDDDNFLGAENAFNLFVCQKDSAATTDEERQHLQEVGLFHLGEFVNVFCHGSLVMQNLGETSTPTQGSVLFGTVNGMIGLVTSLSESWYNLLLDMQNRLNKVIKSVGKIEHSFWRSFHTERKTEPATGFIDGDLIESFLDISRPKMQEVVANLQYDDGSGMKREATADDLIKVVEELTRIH
# Columns and labels:
# GM-CSF = test: Inflammatory cytokine release from PBMCs induced by PMA + Ionomycin (flow cytometry CBA); conditions: 24 h
# IL-2 = test: Inflammatory cytokine release from PBMCs induced by PHA (flow cytometry CBA); conditions: PBMCs, PHA 1 µg/mL, 24 h
# GSPT1 = GSPT1 (Homo sapiens, UniProt P15170+Q96SW2); test: Western blot assay of substrate protein degradation in hPBMCs; conditions: 24 hours treatment, compounds at 50 nM and 500 nM (concentration behind the class not stated)
# IKZF1 = IKZF1 (Homo sapiens, UniProt Q13422+Q96SW2); test: as above; conditions: 24 hours treatment, compounds at 50 nM and 500 nM (concentration behind the class not stated)
# CK1α = CK1α (Homo sapiens, UniProt P48729+Q96SW2); test: as above; conditions: 24 hours treatment, compounds at 50 nM and 500 nM (concentration behind the class not stated)
# WEE1 = WEE1 (Homo sapiens, UniProt P30291+Q96SW2); test: as above; conditions: 24 hours treatment, compounds at 50 nM and 500 nM (concentration behind the class not stated)
# IKZF2 = IKZF2 (Homo sapiens, UniProt Q96SW2+Q9UKS7); test: as above; conditions: 24 hours treatment, compounds at 50 nM and 500 nM (concentration behind the class not stated)
# IKZF3 = IKZF3 (Homo sapiens, UniProt Q96SW2+Q9UKT9); test: as above; conditions: 24 hours treatment, compounds at 50 nM and 500 nM (concentration behind the class not stated)
# CRBN = CRBN (Homo sapiens, UniProt Q96SW2); test: CRBN binding affinity by HTRF (CEREBLON BINDING kit); conditions: for Inhibition Rate at 0.5 µM (%) / Inhibition Rate at 2 µM (%): CRBN binding, HTRF; for Inhibition Rate at 0.5 µM (%): compound at 0.5 µM; for Inhibition Rate at 2 µM (%): compound at 2 µM
# TNF-α = test: Inflammatory cytokine release from PBMCs induced by PHA (flow cytometry CBA); conditions: PHA 1 µg/mL, 24 h
# [1] = test system: Human mantle cell lymphoma cell line (JEKO-1); test: Tumor cell proliferation inhibition (cell viability assay); conditions: JEKO-1 cells, 96 hours
# [2] = test system: Human multiple myeloma cell (MM.1S); test: as above; conditions: MM.1S cells, 96 hours
# [3] = test system: Human acute T lymphocytic leukemia cell (Molt4); test: as above; conditions: Molt4 cells, 96 hours
# [4] = test system: Human myeloid monocytic leukemia cell (MV-4-11); test: as above; conditions: MV-4-11 cells, 96 hours
# [5] = test system: Human colon cancer cell (SW620); test: as above; conditions: SW620 cells, 96 hours
Inhibition Rate at 0.5 µM (%) (CRBN),Inhibition Rate at 2 µM (%) (CRBN),Compound,Inhibition Rate (%) GM-CSF (GM-CSF; 0.1 µM),Inhibition Rate (%) GM-CSF (GM-CSF; 1 µM),Inhibition Rate (%) IL-2 (IL-2; 0.1 µM),Inhibition Rate (%) IL-2 (IL-2; 1 µM),substrate protein remaining % (GSPT1) (GSPT1),substrate protein remaining % (IKZF 1) (IKZF1),substrate protein remaining % (CK1a) (CK1α),substrate protein remaining % (WEE1) (WEE1),substrate protein remaining % (IKZF2) (IKZF2),substrate protein remaining % (IKZF3) (IKZF3),Inhibition Rate (%) TNF-α (TNF-α; 0.1 µM),Inhibition Rate (%) TNF-α (TNF-α; 1 µM),Inhibition Rate at 10 nM (%) [1],Inhibition Rate at 500 nM (%) [1],Inhibition Rate at 10 nM (%) [3],Inhibition Rate at 500 nM (%) [3],Inhibition Rate at 10 nM (%) [4],Inhibition Rate at 500 nM (%) [4],also measured
a4 (40% < a4 ≤ 53%),a5 (53% < a5 ≤ 60%),O=C1CCC(N2Cc3cc(CCN4CCC(N5CCN(c6cccc(Cl)c6Cl)CC5)C(F)(F)C4)ccc3C2=O)C(=O)N1 (centres unmarked),IV10 (50% < IV 10 ≤ 60%),IV1 0,IV9 (40% < IV9 ≤ 50%),IV1 1,A (0% ≤ substrate protein remaining % ≤ 80%),A (0% ≤ substrate protein remaining % ≤ 80%),A (0% ≤ substrate protein remaining % ≤ 80%),A (0% ≤ substrate protein remaining % ≤ 80%),B (80%< substrate protein remaining %≤ 100%),B (80%< substrate protein remaining %≤ 100%),IV8 (30% < IV8 ≤ 40%),IV9 (40% < IV9 ≤ 50%),,,,,,,
a6 (60% < a6 ≤ 70%),a8 (80% < a8 ≤100%),CC1(C)CCC(C(=O)N2CCN(C3CCN(Cc4ccc5c(c4)C(=O)N(C4CCC(=O)NC4=O)C5)CC3(F)F)CC2)=C(c2ccc(Cl)cc2)C1 (centres unmarked),IV10 (50% < IV 10 ≤ 60%),IV8 (30% < IV8 ≤ 40%),IV11 (60% < IV11 ≤ 70%),IV1 1,,,,,,,IV9 (40% < IV9 ≤ 50%),IV6 (10% < IV6 ≤ 20%),,,,,1a7 (50% ≤ 1a7 < 60%),1a7 (50% ≤ 1a7 < 60%),
a2 (20% < a2 ≤ 30%),a5 (53% < a5 ≤ 60%),O=C1CCC(N2Cc3cc(C(=O)N4CCC(N5CCN(c6cccc(Cl)c6Cl)CC5)C(F)(F)C4)c(F)cc3C2=O)C(=O)N1 (centres unmarked),,,,,A (0% ≤ substrate protein remaining % ≤ 80%),B (80%< substrate protein remaining %≤ 100%),B (80%< substrate protein remaining %≤ 100%),A (0% ≤ substrate protein remaining % ≤ 80%),A (0% ≤ substrate protein remaining % ≤ 80%),B (80%< substrate protein remaining %≤ 100%),,,1g6 (40% ≤ 1g6 < 50%),1g7 (50% ≤ 1g7 < 60%),1c7 (40% ≤ 1c7 < 50%),1c11 (80% ≤ 1c11 ≤ 100%),1a5 (30% ≤ 1a5 ≤ 40%),1a9 (70% ≤ 1a9 < 80%),
a3 (30% < a3 ≤ 40%),a8 (80% < a8 ≤100%),CC1(C)CCC(C(=O)N2CCN(C3CCN(Cc4cccc5c4C(=O)N(C4CCC(=O)NC4=O)C5)CC3(F)F)CC2)=C(c2ccc(Cl)cc2)C1 (centres unmarked),IV9 (40% < IV9 ≤ 50%),IV9 (40% < IV9 ≤ 50%),IV9 (40% < IV9 ≤ 50%),IV9 (40% < IV9 ≤ 50%),A (0% ≤ substrate protein remaining % ≤ 80%),B (80%< substrate protein remaining %≤ 100%),B (80%< substrate protein remaining %≤ 100%),B (80%< substrate protein remaining %≤ 100%),B (80%< substrate protein remaining %≤ 100%),B (80%< substrate protein remaining %≤ 100%),,,,,,,,,

# Second part, the compound before the results:
Compound,Inhibition Rate at 0.5 µM (%) (CRBN),Inhibition Rate at 2 µM (%) (CRBN),Inhibition Rate (%) GM-CSF (GM-CSF; 0.1 µM),Inhibition Rate (%) GM-CSF (GM-CSF; 1 µM),Inhibition Rate (%) IL-2 (IL-2; 0.1 µM),Inhibition Rate (%) IL-2 (IL-2; 1 µM),substrate protein remaining % (GSPT1) (GSPT1),substrate protein remaining % (IKZF 1) (IKZF1),substrate protein remaining % (CK1a) (CK1α),substrate protein remaining % (WEE1) (WEE1),substrate protein remaining % (IKZF2) (IKZF2),substrate protein remaining % (IKZF3) (IKZF3),Inhibition Rate (%) TNF-α (TNF-α; 0.1 µM),Inhibition Rate (%) TNF-α (TNF-α; 1 µM),Inhibition Rate at 10 nM (%) [1],Inhibition Rate at 500 nM (%) [1],Inhibition Rate at 10 nM (%) [3],Inhibition Rate at 500 nM (%) [3],Inhibition Rate at 10 nM (%) [4],Inhibition Rate at 500 nM (%) [4],also measured
O=C1CCC(N2C(=O)c3ccc(CN4CCC(N5CCN(C(c6ccccc6)c6ccccn6)CC5)C(F)(F)C4)cc3C2=O)C(=O)N1 (centres unmarked),,,IV8 (30% < IV8 ≤ 40%),IV9 (40% < IV9 ≤ 50%),IV8 (30% < IV8 ≤ 40%),IV9 (40% < IV9 ≤ 50%),A (0% ≤ substrate protein remaining % ≤ 80%),B (80%< substrate protein remaining %≤ 100%),B (80%< substrate protein remaining %≤ 100%),B (80%< substrate protein remaining %≤ 100%),B (80%< substrate protein remaining %≤ 100%),B (80%< substrate protein remaining %≤ 100%),,,,,,,,,
O=C1CCC(N2Cc3cc(CN4CCC(N5CC=C(c6cccc(Cl)c6Cl)CC5)C(F)(F)C4)ccc3C2=O)C(=O)N1 (centres unmarked),,,,,,,A (0% ≤ substrate protein remaining % ≤ 80%),B (80%< substrate protein remaining %≤ 100%),B (80%< substrate protein remaining %≤ 100%),B (80%< substrate protein remaining %≤ 100%),B (80%< substrate protein remaining %≤ 100%),B (80%< substrate protein remaining %≤ 100%),,,1g5 (30% ≤ 1g5 < 40%),1g6 (40% ≤ 1g6 < 50%),1c6 (30% ≤ 1c6 < 40%),1c11 (80% ≤ 1c11 ≤ 100%),1a5 (30% ≤ 1a5 ≤ 40%),1a10 (80% ≤ 1a10 < 100%),"IC50 (CRBN; read-out: HTRF IC50, human Cereblon WT GST-tagged protein, 3 hours at room temperature): 100 to 500 nM; Inhibition Rate at 10 nM (%) [2]: 1b7 (50% ≤ 1b7 < 60%); Inhibition Rate at 500 nM (%) [2]: 1b10 (80% ≤ 1b10 ≤ 100%); Inhibition Rate at 10 nM (%) [5]: 1d6 (40% ≤ 1d6 < 50%); Inhibition Rate at 500 nM (%) [5]: 1d7 (50% ≤ 1d7 < 60%)"
O=C1CCC(N2Cc3cc(C(=O)N4CCC(N5CCN(c6noc7cc(F)ccc67)CC5)C(F)(F)C4)c(F)cc3C2=O)C(=O)N1 (centres unmarked),a3 (30% < a3 ≤ 40%),a7 (70% < a7 ≤80%),,,,,A (0% ≤ substrate protein remaining % ≤ 80%),B (80%< substrate protein remaining %≤ 100%),A (0% ≤ substrate protein remaining % ≤ 80%),A (0% ≤ substrate protein remaining % ≤ 80%),B (80%< substrate protein remaining %≤ 100%),B (80%< substrate protein remaining %≤ 100%),,,1g3 (10% ≤ 1g3 < 20%),1g6 (40% ≤ 1g6 < 50%),1c6 (30% ≤ 1c6 < 40%),1c11 (80% ≤ 1c11 ≤ 100%),1a8 (60% ≤ 1a8 < 70%),1a10 (80% ≤ 1a10 < 100%),Inhibition Rate at 10 nM (%) [2]: 1b4 (20% ≤ 1b4 < 32%); Inhibition Rate at 500 nM (%) [2]: 1b10 (80% ≤ 1b10 ≤ 100%); Inhibition Rate at 10 nM (%) [5]: 1d2 (5% ≤ 1d2 < 10%); Inhibition Rate at 500 nM (%) [5]: 1d8 (60% ≤ 1d8 < 70%)
O=C1CCC(N2C(=O)c3ccc(CN4CCC(N5CCN(C(c6ccccc6)c6ccccc6)CC5)C(F)(F)C4)cc3C2=O)C(=O)N1 (centres unmarked),,,IV9 (40% < IV9 ≤ 50%),IV7 (20% < IV7 ≤ 30%),IV10 (50% < IV 10 ≤ 60%),IV1 0,A (0% ≤ substrate protein remaining % ≤ 80%),B (80%< substrate protein remaining %≤ 100%),A (0% ≤ substrate protein remaining % ≤ 80%),B (80%< substrate protein remaining %≤ 100%),A (0% ≤ substrate protein remaining % ≤ 80%),A (0% ≤ substrate protein remaining % ≤ 80%),IV9 (40% < IV9 ≤ 50%),IV9 (40% < IV9 ≤ 50%),,,,,,,
